{"source": "paper PMC10706425", "about": "“Enhancing the Antimicrobial Properties of Peptides through Cell-Penetrating Peptide Conjugation: A Comprehensive Assessment” (International Journal of Molecular Sciences, 2023)", "key": {"MRSA (ATCC 43300 strain)": {"system": "MRSA (ATCC 43300 strain)", "assay": "Antibacterial activity in liquid medium", "assay_type": "cell-based, Methicillin-resistant Staphylococcus aureus", "conditions": "15 h incubation; tested 0.75–12 µM; gentamicin 200 µM; Figures 3, 4", "from_the_text": "(§1) Two S. aureus strains were used: a susceptible strain 209P and a clinical isolate strain 129B (resistant to antibiotics: benzylpenicillin, clindamycin, erythromycin, oxacillin, sulfamethoxazole, and vancomycin). Two MRSA strains were included: a susceptible strain ATCC 43300 (resistant to antibiotics: methicillin, oxacillin (beta-lactam antibiotics), ampicillin (https://www.atcc.org/products/43300 (accessed on 11 November 2023)) and a clinical isolate strain SA 180 (resistant to antibiotics: benzylpenicillin and oxacillin (beta-lactam antibiotics), ciprofloxacin, clindamycin, erythromycin, levomycetin, sulfamethoxazole, and vancomycin). One B. cereus was used: a susceptible strain, IP 5832. Two P. aeruginosa strains were included: a susceptible strain, ATCC 28753, and a resistant strain, 2943. Two E. coli strains were used: a susceptible strain, K12, and a susceptible strain, MG1655.\n(§2) Determination of the growth for the bacteria S. aureus strain 209P, MRSA strain ATCC 43300, B. cereus strain IP 5832, P. aeruginosa strain ATCC 28753, and E. coli strain K12 was performed using Mueller–Hinton Broth (MHB) (Sigma-Aldrich, St. Louis, MO, USA). Bacteria of S. aureus (strain 129B) and MRSA (strain SA 180-F) were grown on the brain-heart infusion (BHI) medium, and bacteria of P. aeruginosa (strain 2943) and E. coli (strain MG1655) were grown on the LB medium. […]"}, "[1]": {"system": "P. aeruginosa (ATCC 28753 strain)", "assay": "Antibacterial activity in liquid medium", "assay_type": "cell-based, Pseudomonas aeruginosa", "conditions": "15 h incubation; tested 0.75–12 µM; gentamicin 200 µM; Figures 3, 4", "from_the_text": "as §1, §2"}}}
{"sequence": "VTDFGVFVEIGGGGSRQIKIWFQNRRMKWKK [V31K^T]", "values": [{"measurement": "Concentrations at which the peptide showed an antimicrobial effect (comparable to gentamicin)", "setting": "MRSA (ATCC 43300 strain)", "result": "no significant inhibitory effects"}, {"measurement": "Concentrations at which the peptide showed an antimicrobial effect (comparable to gentamicin)", "setting": "[1]", "result": "no significant antimicrobial effects"}]}
